Literature values, collected in patent US11000488B2 (priority 2019, dated 2021).

Chains of the proteins cited; added tags and fusions are not shown.
UniProt P35372, whole entry, species assumed: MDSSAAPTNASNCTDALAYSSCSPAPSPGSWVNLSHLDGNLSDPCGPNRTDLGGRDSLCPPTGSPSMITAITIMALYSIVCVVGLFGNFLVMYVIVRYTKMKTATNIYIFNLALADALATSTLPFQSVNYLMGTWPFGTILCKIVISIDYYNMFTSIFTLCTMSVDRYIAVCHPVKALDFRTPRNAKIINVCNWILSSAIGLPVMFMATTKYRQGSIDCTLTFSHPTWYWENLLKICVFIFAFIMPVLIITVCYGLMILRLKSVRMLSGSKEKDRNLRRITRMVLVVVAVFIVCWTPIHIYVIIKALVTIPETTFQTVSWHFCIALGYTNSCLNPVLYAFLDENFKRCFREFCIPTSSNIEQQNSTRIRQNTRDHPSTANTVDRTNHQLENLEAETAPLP

Target: μ-opioid receptor (Homo sapiens, UniProt P35372)
Details: in vitro; read-out: μ-opioid receptor binding affinity (Ki); cited from earlier work

| SMILES | Ki |
| --- | --- |
| CN(C)CC1CCCCC1(O)c1cccc(O)c1 (single isomer, unassigned; (-)) [(−)-M1] | 240 nM |
| CN(C)C[C@H]1CCCC[C@]1(O)c1cccc(O)c1 [(+)-M1, (1R,2R)-O-desmethyltramadol] | 3.4 nM |
